Values of other authors as cited in paper PMC7180456, “Multitarget Anticancer Agents Based on Histone Deacetylase and Protein Kinase CK2 Inhibitors” (Molecules, 2020).

Tested on: CK2
Conditions: Figure 1; read-out: IC50 of representative CK2 inhibitors; cited from earlier work

CN(C)c1nc2c(Br)c(Br)c(Br)c(Br)c2[nH]1 [DMAT, 2-dimethylamino-4,5,6,7-tetrabromo-1H-benzimidazole]
IC50: 140 nM
